# Antibody variant affinities, Ab-14 heavy chain, assay 1

Values reported by Engelhart et al. 2022, doi:10.1038/s41597-022-01779-4 (FLAb copy).

Target peptide (SARS-CoV-2 spike, HR2 region): PDVDLGDISGINAS

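Library AAYL49 holds single substitutions and randomly drawn double and triple substitutions in the CDRs. In AlphaSeq, yeast of one mating type display the scFv and yeast of the other type display the target. Mating (16 h, 30 °C) was followed by selection of diploids and sequencing of their barcodes. Scores were corrected for input abundance and mapped to Kd with protein pairs of known affinity run in the same pool. The assay was run in three technical replicates.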

Parent: Ab-14, a human scFv built as VH, three GGGGS repeats, VL. Only the CDRs of the heavy chain vary.
VH: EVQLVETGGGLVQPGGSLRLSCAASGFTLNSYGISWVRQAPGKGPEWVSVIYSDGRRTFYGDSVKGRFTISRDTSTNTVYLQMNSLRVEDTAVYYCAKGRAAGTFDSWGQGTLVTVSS
VL: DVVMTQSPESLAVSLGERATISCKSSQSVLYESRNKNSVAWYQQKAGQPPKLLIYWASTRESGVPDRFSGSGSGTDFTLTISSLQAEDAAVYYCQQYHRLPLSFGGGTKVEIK

Variants are written as CDR1, CDR2 and CDR3 of the heavy chain (limits as in the source). Parent: GFTLNSYGIS, VIYSDGRRTFYGDSVK, GRAAGTFDS.
All variants listed here change F27 of the VH, counted from its first residue.
Each Kd is an estimate from the mating assay, the geometric mean of the replicates in which the pair was seen; lower is stronger.
"nd" means that the variant was in the library but no mating with the target was seen in any replicate; the authors take this as a sign of poor binding, and no number exists.
For reference, the parent read 4.4 nM as the reference entry and 13 µM (one replicate of three) as a member of this library.

The variant GYTLNSYGIH, VIYSDGRRTFYDDSVK, GRAAGTFDS showed nd (0 of 3 replicates).
The variant GRTLNSYGIS, VIYSDGRRTFYGDSVK, GRAAGTYDS showed 170 nM (3 of 3 replicates).
The variant GCTTNSYGIS, VHYSDGRRTFYGDSVK, GRAAGTFDS showed nd (0 of 3 replicates).
The variant GPTLNSYGIS, VISSDGRRAFYGDSVK, GRAAGTFDS showed 18 µM (2 of 3 replicates).
The variant MRTLNGYGIS, VIYSDGRRTFYGDSVK, GRAAGTFDS showed 11 µM (3 of 3 replicates).
The variant GLTLNSYGIS, IIYSDGRRTFMGDSVK, GRAAGTFDS showed nd (0 of 3 replicates).
The variant GVTLNSYGIS, VIYSDGRMTFYGDSVK, GRAAQTFDS showed 210 µM (1 of 3 replicates).
The variant GPTLNSYGIV, VIYSDGRRTFYGDSVK, GRAAGTFDS showed nd (0 of 3 replicates).
The variant GPTLNSYGIS, YIYSDGRRTFYGDSVK, GRAAGTFDS showed 34 µM (1 of 3 replicates).
The variant GCDLNSYGIS, VIYSDGRRTFYLDSVK, GRAAGTFDS showed 75 nM (3 of 3 replicates).
The variant GATLNSYGIS, VIYSDGRRTFTGDSVK, GRAAGTFDS showed nd (0 of 3 replicates).
The variant GHTLNSYGIS, VIYSDGRKTFYGDSVK, GRAAGTFVS showed 160 nM (3 of 3 replicates).
The variant GRTLNSYGIS, VIYSPGRRTFYGDSVK, GRAAGTFDS showed nd (0 of 3 replicates).
The variant GHTLNSYGIS, VIYSDGRRTFYGDSVK, GNAAGTFDS showed 380 µM (1 of 3 replicates).
The variant GNTRNSYGIS, VIYSDGRRTFYGDSVK, GRAAGTFDS showed nd (0 of 3 replicates).
The variant GETLNSYGIS, VIYRDGRRTFYGDSVK, GRAAGTFDC showed nd (0 of 3 replicates).
The variant GNTLNSYGIS, VIYMDGRRTFYGDSWK, GRAAGTFDS showed nd (0 of 3 replicates).
The variant VITLNSYGIL, VIYSDGRRTFYGDSVK, GRAAGTFDS showed nd (0 of 3 replicates).
The variant GATLNSYGIS, VIYSDGRTTFYGDSVK, GRIAGTFDS showed 350 nM (3 of 3 replicates).
The variant GVTLNSYGIS, VIYSDGRRTGYGDSVK, GRAQGTFDS showed nd (0 of 3 replicates).
The variant GVTLNSYGIS, QIYSDGGRTFYGDSVK, GRAAGTFDS showed nd (0 of 3 replicates).
The variant GQALNSYGIS, VIYYDGRRTFYGDSVK, GRAAGTFDS showed 110 nM (3 of 3 replicates).
The variant GWTLNSYGIS, VIYSDGRRTFVGDSVK, GRAAGWFDS showed 65 µM (2 of 3 replicates).
The variant GQTLNSYGCS, VIYSDGRRTFYGDSVK, GRAMGTFDS showed 150 µM (1 of 3 replicates).
The variant GETLGSYGIS, VIYSDGRRTFYGDSVK, GLAAGTFDS showed 2.9 µM (1 of 3 replicates).
The variant GWYLNSYGIS, VIASDGRRTFYGDSVK, GRAAGTFDS showed 7.7 µM (2 of 3 replicates).
The variant GYTLNSYGHS, VIYRDGRRTFYGDSVK, GRAAGTFDS showed nd (0 of 3 replicates).
The variant GITLNSYGIS, VIYIDGRRTFYGDSVK, GRAAGTADS showed nd (0 of 3 replicates).
The variant GDTLNSYGIS, VIYSDGRRRFYGDSVK, GRAADTFDS showed nd (0 of 3 replicates).
The variant GATLNSYGIS, VIYSDGRRTFYYDSVK, GRAAGTFDS showed 260 nM (1 of 3 replicates).
The variant GVTLNSYGIS, VIYSDGRGTFYGQSVK, GRAAGTFDS showed nd (0 of 3 replicates).
The variant GETLNSYGIS, VQYSDGRRTFYGDSYK, GRAAGTFDS showed 22 µM (1 of 3 replicates).
The variant GWTLNSYGIS, VIYSDGRRTFYGDSVK, GRFAGTFDS showed 100 nM (3 of 3 replicates).

Top 3 of the variants detected in all replicates, tightest first:

For GCDLNSYGIS, VIYSDGRRTFYLDSVK, GRAAGTFDS, the assay gave 75 nM (3 of 3 replicates).
For GWTLNSYGIS, VIYSDGRRTFYGDSVK, GRFAGTFDS, the assay gave 100 nM (3 of 3 replicates).
For GQALNSYGIS, VIYYDGRRTFYGDSVK, GRAAGTFDS, the assay gave 110 nM (3 of 3 replicates).

Empty control strains, which show no peptide, gave a signal in 15% of pairings with library AAYL49; the median was 11 µM and 95% of these signals were weaker than 680 nM. No background was subtracted.